Results taken from ChEMBL document CHEMBL5036353, “Discovery of Pyrazolo[3,4-d]pyridazinone Derivatives as Selective DDR1 Inhibitors via Deep Learning Based Design, Synthesis, and Biological Evaluation” (J Med Chem, 2022).

By UniProt entry, the sequences of proteins in these tests, tags left out. Where a name states a change or a piece, a line headed by the entry shows the natural chain unless it says otherwise.
UniProt Q08345: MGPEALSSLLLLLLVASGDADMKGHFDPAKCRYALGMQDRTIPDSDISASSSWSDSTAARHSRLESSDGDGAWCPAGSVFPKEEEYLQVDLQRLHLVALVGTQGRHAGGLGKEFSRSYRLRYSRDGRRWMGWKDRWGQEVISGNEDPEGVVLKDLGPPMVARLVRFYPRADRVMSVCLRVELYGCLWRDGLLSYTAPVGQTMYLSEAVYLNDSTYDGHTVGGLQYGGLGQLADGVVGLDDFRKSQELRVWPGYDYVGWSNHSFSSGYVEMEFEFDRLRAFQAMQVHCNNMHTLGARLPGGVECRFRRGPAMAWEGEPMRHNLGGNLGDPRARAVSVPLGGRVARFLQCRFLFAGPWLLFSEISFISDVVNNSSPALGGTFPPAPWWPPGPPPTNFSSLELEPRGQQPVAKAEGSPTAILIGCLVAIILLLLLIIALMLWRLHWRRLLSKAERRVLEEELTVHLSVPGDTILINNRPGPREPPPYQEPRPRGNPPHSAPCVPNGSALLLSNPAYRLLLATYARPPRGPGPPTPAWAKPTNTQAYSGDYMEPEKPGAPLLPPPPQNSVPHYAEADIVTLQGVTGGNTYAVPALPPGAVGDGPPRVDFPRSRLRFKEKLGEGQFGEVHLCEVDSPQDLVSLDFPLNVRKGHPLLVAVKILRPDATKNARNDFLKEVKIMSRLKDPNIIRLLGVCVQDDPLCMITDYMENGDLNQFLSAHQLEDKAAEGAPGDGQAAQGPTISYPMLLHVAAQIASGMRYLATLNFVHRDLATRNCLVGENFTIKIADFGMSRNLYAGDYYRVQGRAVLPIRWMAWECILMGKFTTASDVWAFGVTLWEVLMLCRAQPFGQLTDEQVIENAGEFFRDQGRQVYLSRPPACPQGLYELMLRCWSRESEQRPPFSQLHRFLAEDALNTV

Biological target: Epithelial discoidin domain-containing receptor 1 (Homo sapiens) (UniProt Q08345)
Experiment: Inhibition of DDR1 (unknown origin) at 0.1 uM relative to control

**Q.** `Cc1c(-c2c3c(N)n[nH]c(=O)c3nn2-c2ccccc2)oc2ccccc12` was tested. Which inhibition did it give?
**A.** The inhibition was 48%.
